# Reference: PubChem BioAssay AID602329 (Broad Institute, 2012)
# Protein sequences, listed by entry. Tags and fused reporters are not part of them. Lines headed by an entry give the natural chain unless they say otherwise; changes in a name come on top.
# UniProt Q92698: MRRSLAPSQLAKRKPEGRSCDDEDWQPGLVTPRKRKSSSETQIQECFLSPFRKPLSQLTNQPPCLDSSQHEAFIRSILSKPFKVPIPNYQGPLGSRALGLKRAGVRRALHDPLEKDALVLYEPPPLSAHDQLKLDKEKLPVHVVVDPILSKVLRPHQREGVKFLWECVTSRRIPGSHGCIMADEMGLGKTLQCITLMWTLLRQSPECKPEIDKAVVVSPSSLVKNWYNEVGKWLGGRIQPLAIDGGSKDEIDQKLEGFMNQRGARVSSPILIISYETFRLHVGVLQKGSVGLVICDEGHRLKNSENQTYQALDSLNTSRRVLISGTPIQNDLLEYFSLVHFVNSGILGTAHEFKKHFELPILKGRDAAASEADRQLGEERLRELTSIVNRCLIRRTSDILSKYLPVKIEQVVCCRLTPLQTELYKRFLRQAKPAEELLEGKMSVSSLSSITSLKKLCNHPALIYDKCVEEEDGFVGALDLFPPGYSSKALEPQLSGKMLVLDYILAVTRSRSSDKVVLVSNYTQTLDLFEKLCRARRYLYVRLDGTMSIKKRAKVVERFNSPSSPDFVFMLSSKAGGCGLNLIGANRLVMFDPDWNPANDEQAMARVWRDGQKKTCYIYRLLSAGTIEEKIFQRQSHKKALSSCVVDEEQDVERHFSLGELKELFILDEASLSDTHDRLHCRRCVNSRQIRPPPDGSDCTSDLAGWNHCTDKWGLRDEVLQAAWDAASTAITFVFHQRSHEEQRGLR
# The list shows a part of the results, in another mix than the full data. Activity calls are given as the source filed them.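 The calls were made as follows: active = mean normalized replicate activity at least 40 and at least half of replicates scoring 40 or more; inconclusive = only one of the two criteria met; inactive = mean below 40 and under half of replicates reaching 40.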
# Target: DNA repair and recombination protein RAD54-like (Homo sapiens) (UniProt Q92698)
# Assay: inhibitors of human RAD54 branch migration, primary screen, biochemical, fluorescence, single point (AID 602329);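 also: 0% = median of neutral control wells and 100% = median of positive control wells; inhibitors cause a drop in the FAM fluorescence signal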
# Conditions: RAD54 Holliday junction branch migration, FAM/BHQ fluorescence; at 10.4 µM; hits give high values
row,SMILES,inhibition
1,Cc1cccc(OCC(=O)OC2CN3CCC2CC3)c1 (stereo not given),inactive: -4.77%
2,O=C(OC1CN2CCC1CC2)c1ccc(Cl)cc1 (stereo not given),inactive: 13%
3,O=[As](O)(O)c1cccnc1,inactive: 4.58%
4,CS(=O)(=O)c1ccc(Cl)c(NC(=O)COC(=O)C(O)(c2ccccc2)c2ccccc2)c1,inactive: -4.42%
5,Cc1ccc(NCCc2c([N+](=O)[O-])cc([N+](=O)[O-])cc2[N+](=O)[O-])cc1,inactive: 3.74%
6,Nc1cccc2c([As](=O)(O)O)cccc12,inactive: -52.6%
7,CCCOP(=S)(Nc1nc(N)cc(=O)[nH]1)OCCC,inactive: 3.11%
8,O=C(O)COc1ccc([As](=O)(O)O)cc1[N+](=O)[O-],inactive: 7.8%
9,Nc1ccccc1[As](=O)(O)c1ccccc1,inactive: -12%
10,CCOP1(=S)c2c(C)nn(CCC#N)c2N=C(c2ccccc2F)N1C (stereo not given),inactive: -16.7%
11,O=P(Nc1nccs1)(c1ccccc1)c1nc2ccccc2s1 (stereo not given),inactive: -4.98%
12,N#CCCN(C(=O)COC(=O)C(O)(c1ccccc1)c1ccccc1)c1ccc(F)cc1,inactive: 6.9%
13,CCOP1(=S)c2c(C)nn(CCC#N)c2N=C(c2ccc(F)cc2)N1C (stereo not given),inactive: 4.28%
14,CN(C(=O)Cc1ccccc1)[C@@H]1CC[C@]2(CCCO2)C[C@H]1N1CCCC1,inactive: -13.9%
15,CN(C)C(=O)c1cc([N+](=O)[O-])cc2c1-c1c(cc([N+](=O)[O-])cc1[N+](=O)[O-])C2=O,inactive: -4.18%
16,O=[N+]([O-])c1ccc2c(c1)nnn2O,inactive: -3.34%
17,CN(C(=O)Cc1ccc(Cl)c(Cl)c1)[C@H]1CC[C@@]2(CCCO2)C[C@@H]1N1CCCC1,inactive: 5.74%
18,NC(=O)Nc1ccc([As](=O)(O)O)cc1,inactive: -11.4%
19,O=P1(N(CCCl)CCCl)OCCC2CCCCN21 (stereo not given),inactive: -14.6%
20,Cc1ccc(NP(=O)(Oc2cccc(C)c2)Oc2cccc(C)c2)nc1,inactive: -0.211%
21,CCNC(=S)/N=C(\N)N[N+](=O)[O-],inactive: -1.93%
22,CC(NC(=O)COC(=O)C(O)(c1ccccc1)c1ccccc1)c1ccccc1 (stereo not given),inactive: -0.79%
23,CN(C)C(=O)Oc1noc2ccccc12,inactive: -1.52%
24,O=C(OC1CN2CCC1CC2)c1ccccc1 (stereo not given),inactive: -1.18%
25,CCC(=O)N1C2C3N(C(=O)CC)C1C1N(C(=O)CC)C(C(N1C(=O)CC)N3C(=O)CC)N2C(=O)CC,inactive: 2.19%

row,SMILES,inhibition
1,COC(=O)c1cc2c(s1)N=C(c1ccccc1)N(C)P2(=O)N1CCOCC1 (stereo not given),inactive: 2.69%
2,CC(=O)NC(SC(=S)N(CC(C)C)CC(C)C)C(Cl)(Cl)Cl (stereo not given),inactive: -7.77%
3,CCc1cc(O)c([N+](=O)[O-])c(C)c1[N+](=O)[O-],inactive: 6.23%
4,O=P1(Nc2nc3ccc(Cl)cc3s2)COc2ccccc2O1 (stereo not given),inactive: -10.1%
5,CC(=O)Nc1ccc([As](=O)(O)O)c(O)c1,inactive: 3.16%
6,CC(=O)Nc1ccc(Oc2c([N+](=O)[O-])cc([N+](=O)[O-])cc2[N+](=O)[O-])cc1,inactive: -1.05%
7,Cc1ccccc1CN(C)C(=O)COC(=O)C(O)(c1ccccc1)c1ccccc1,inactive: -11.6%
8,C[C@@H]1C=CCP(=O)(Oc2ccccc2)O1 (stereo not given in full),inactive: -2.21%
9,C[C@H]1OP(=O)(Oc2ccccc2)C[C@@H]2O[C@@H]21 (stereo not given in full),inactive: 1.41%
10,CC(=O)c1ccc(N2CC2c2ccncc2)cc1 (stereo not given),inactive: -12.5%
11,c1nnnn1CCn1cnnn1,inactive: -3.18%
12,O=P(Nc1nccs1)(c1ccccc1)c1ccccc1,inactive: -0.14%
13,O=P(Nc1nc2ccccc2s1)(c1ccccc1)c1ccccc1,inactive: -4%
14,C[C@H]1OP(=O)(Oc2ccccc2)[C@H](O)[C@H](O)[C@H]1N=[N+]=[N-] (stereo not given in full),inactive: 13.3%
15,CN(C)C1(CNC(=O)c2ccc(Cl)c(S(N)(=O)=O)c2)CCCCC1,inactive: -11.6%
16,O=P(Nc1ccccn1)(c1ccc(Br)cc1)c1ccc(Br)cc1,inactive: -8.79%
17,Nc1ccc(CCCCOc2ccccc2)cc1,inactive: 0.615%
18,COc1ccc(N)c([N+](=O)[O-])c1[N+](=O)[O-],inactive: -2.53%
19,O=C(OC1CN2CCC1CC2)c1cccc(Cl)c1 (stereo not given),inactive: -9.85%
20,Nc1ccc([As](=O)(O)c2ccc([N+](=O)[O-])cc2)cc1,inactive: 0.237%
21,O=[As](O)(c1ccccc1)c1ccc(O)cc1,inactive: 1.08%
22,CC(=O)NC(SC(=S)N(C)C)C(Cl)(Cl)Cl (stereo not given),inactive: -4.55%
23,O=[N+]([O-])c1ccc(O)c(/C=N/Nc2ccc([N+](=O)[O-])cc2[N+](=O)[O-])c1,inactive: -12.8%
24,O=C(Nc1cc([As](=O)(O)O)ccc1O)c1ccccc1,inactive: 0.322%
25,O=P1(N(CCCl)CCCl)OCCCS1 (stereo not given),inactive: -6.59%
